The values that follow are results of earlier work, collected in patent US20030073115A1 (priority 2002, published 2003).

The test system of data set [1] is Galanin receptors in the dorsal hippocampus.
Data set [2] concerns CNS galanin receptors. The conditions noted are these: CNS / brain.
Data set [3] concerns galanin binding site in guinea pig stomach.
For data set [4], the system named is pituitary galanin receptor. The settings on record: rat pituitary.
Data set [5] has as its target galanin binding sites. The conditions noted are these: read-out: affinity of galanin binding sites for 125I-porcine galanin; brain, spinal cord, pancreatic islets and cell lines, gastrointestinal smooth muscle.

Take Gal (1-29): galanin 1-29: the affinity result in data set [1] is given as “not”. In the case of “Porcine galanin 3-29: fragment 3-29 of porcine galanin”, in data set [2], the “activity at CNS galanin receptors” value was “inactive”. In addition, the affinity result in data set [3] is listed as “high affinity”. On to “[^125I]Tyr^26-porcine galanin: porcine galanin 125I-labeled at Tyr26”, for which the binding result in data set [4] is given as “not”. Take “^125I-Bolton and Hunter (N-terminus)-labeled galanin (1-29): N-terminally 125I-Bolton and Hunter labeled galanin (1-29)”: the binding result in data set [4] is recorded as “high-affinity binding”. Take “^125I-porcine galanin: 125I-labeled porcine galanin, radioligand”: the Kd in data set [5] is 0.5 to 1 nM.
